Reference: patent publication US20260274895A1, “DE NOVO DESIGNED MEMBRANE-TRAVERSING AND ORALLY BIOAVAILABLE MACROCYCLES” (UNIVERSITY OF WASHINGTON, priority 2022, published 2026)

Experiment: Parallel artificial membrane permeability assay (PAMPA)
Conditions: average of three replicates; 16-20 hours incubation, 5% DMSO PBS

Row | Substance | PAMPA_Papp_Avg (apparent permeability) [×10⁻⁶ cm/s]
1 | Plf*FP*ll*G [Design D8.15] | 0.768
2 | PpA*L*lIvP [Design D8.28] | 0.71
